The experiment concerns EGFR-dependent signaling cascades, tumor cell lines such as A431. Description: EGFR-dependent signaling cascades in tumor cell lines. The experiment is classed as cell-based. The note with it: various tumor cell lines such as A431.

SMILES strings stand for the structures.

For `COc1cc2ncnc(Nc3ccc(F)c(Cl)c3)c2cc1OCCCN1CCOCC1` [Iressa, gefitinib, reference compound], the EGFR-dependent signaling cascades result is “interferes with EGFR-dependent signaling cascades”.

Values taken from patent US20110244506A1, “EGFR DEPENDENT MODULATION OF CHEMOKINE EXPRESSION AND INFLUENCE ON THERAPY AND DIAGNOSIS OF TUMORS AND SIDE EFFECTS THEREOF” (Merck Patent GmbH, priority 2005, published 2011).
